Test results taken from patent US20150306107A1, “SAA Derivative Compound Restores eNOS And Inhibits Oxidative Stress-Induced A Diseases In Hypoxia” (JANSFAT BIOTECHNOLOGY CO., LTD., priority 2014, published 2015).

Tested on: ROCK II
Assay: Western blotting of ROCK II expression in isolated rat pulmonary artery ring, short-term (acute) hypoxia or normoxia
Assay type: cell-based
Conditions: acute hypoxia; Normoxia 100, Hypoxia 560 ± 21
Method: In our in vitro short-term experiment, isolated rat pulmonary artery was grown under normoxia (20% O2) or hypoxia (1% O2) at 37° C. for 24 hrs as was previously done (Wu BN, et al. Int J Immunopathol Pharmacol 24:925, 2011). The heart weight and body weight ratio (HW/BW) of the rats treated with one of SPAAX-1, SPAAX-1 RX complex, Sildenafil or Sildenafil RX complex each measured on the 21st hypoxic day. All animal care and the experimental protocols of this study were approved by the Animal Care and Use Committee of the Kaohsiung Medical University. Male Wistar rats (200-250 g), provided by the National Laboratory Animal Breeding and Research Center (Taipei, Taiwan), were housed under constant temperature and controlled illumination. Food and water were available ad libitum.
Whole right lung tissues of hypoxia-treated and untreated rats were isolated and cut into small strips and placed into an extraction buffer (Tris 10 mM, pH 7.0, NaCl 140 mM, PMSF 2 mM, DTT 5 mM, NP-40 0.5%, pepstatin A 0.05 mM and leupeptin 0.2 mM) for protein extraction, and then centrifuged at 12,500 g for 30 min. To measure the expression levels of the proteins, the total proteins were extracted and Western blotting analysis was performed as described previously (Bivalacqua T J, et al., 2013, TJ PLoSONE 8: e68028. doi:10.1371/journal. pone.0068028). Briefly, the protein extract was boiled to a ratio of 4:1 with a sample buffer (Tris 100 mM, pH 6.8, glycerol 20%, SDS 4% and bromophenol blue 0.2%). Electrophoresis was performed using 10% SDS-polyacrylamide gel (2 hr, 100 V, 40 mA, […] protein per lane). Separated proteins were transferred to PVDF membranes treated with 5% fat-free milk powder to block the nonspecific IgGs (90 min, 100 V) and incubated for one hour with a specific protein antibody. The blot was then incubated with anti-mouse or anti-goat IgG linked to alkaline phosphatase (1:1000) for 1 hr. […]

CCCCCCCCC=CCCCCCCCC(=O)O.CCCc1nn(C)c2c(=O)[nH]c(-c3cc(S(=O)(=O)N4CCN(C)CC4)ccc3OCC)nc12 [Reagent 1013, Sildenafil oleate complex]
ROCK II expression, Pulmonary Artery Ring: 210 ± 22

CCCc1nn(C)c2c(=O)[nH]c(-c3cc(S(=O)(=O)N4CCN(C)CC4)ccc3OCC)nc12.O=C(O)C(O)C(O)C(=O)O [Reagent 1014, Sildenafil tartarate complex]
ROCK II expression, Pulmonary Artery Ring: 220 ± 24

CCCc1nn(C)c2c(=O)[nH]c(-c3cc(S(=O)(=O)N4CCN(C)CC4)ccc3OCC)nc12.Cl [Reagent 1003, Sildenafil HCl complex]
ROCK II expression, Pulmonary Artery Ring: 228 ± 23
